Measurements: US8486989B2, “Inhibitors of serine proteases, particularly HCV NS3-NS4A protease” (Vertex Pharmaceuticals Incorporated, priority 2001, dated 2013)

Tested on: Cells containing hepatitis C virus (HCV) replicon
Assay: HCV replicon cell assay (Taqman real-time RT-PCR of HCV RNA level)
Assay type: cell-based
Conditions: 50% inhibition of HCV RNA level, 48-hour incubation

Compound CCC[C@H](NC(=O)[C@@H]1[C@@H]2[C@H](CN1C(=O)[C@@H](NC(=O)[C@@H](NC(=O)c1cnccn1)C1CCCCC1)C(C)(C)C)[C@@H]1C=C[C@H]2C1)C(=O)C(=O)NC1CC1 [IA, 4-(2-{2-Cyclohexyl-2-[(pyrazine-2-carbonyl)-amino]-acetylamino}-3,3-dimethyl-butyryl)-4-aza-tricyclo[5.2.1.0^2,6]dec-8-ene-3-carboxylic acid (1-cycloproylaminooxalyl-butyl)-amide] has an IC50 of 202 nM.
